Biological target: Frizzled1-GFP (Rattus norvegicus, UniProt Q08463)
Assay: Image-based Frizzled1-GFP internalization assay (primary screening assay) in Fzd1GFP-U2OS cells
Type: cell-based
Details: 12.5 μM, 6 hr, 37° C., scored visually
Procedure: To obtain a Frizzled1-GFP stable cell line (Fzd1GFP-U2OS), U2OS cells were transfected with pCS2ratFrizzled1-GFP and pLKO.1 (10:1 ratio by weight), using the Nucleofection transfection protocol from Amaxa, and stable receptor expressing clones were selected using 1.5 μg/mL puromycin in the culture medium. For generating TOPFlash stable cell lines, HEK293 cells were transfected with p8xTOPFlash, the Renilla luciferase plasmid, and pLKO.1 at a ratio by weight of 10:3:1 and stable clones selected using 1 μg/mL puromycin in the growth medium. pLKO.1 was used to confer puromycin resistance to the stable clones.
The plates were incubated overnight at 37° C. in 5% CO2. […]
To measure the number of the internalized vesicles per cell, cytosol was carefully traced to exclude cell membrane. […] The number of internalized vesicles per cell was counted by the Metamorph software. More than 30 cells per sample were analyzed to obtain statistical significance. […]
To determine the time-course of internalization for Frizzled1-GFP receptors, the accumulation of cytosolic puncta/vesicles was measured (FIG. 4A-4E). Internalization was assessed by counting the number of Frizzled1-GFP containing vesicles in the cytosol using the computer program Metamorph, and the results are presented in the graph for the given times (0 hr, n=51 cells; 1 hr, n=69; 2 hr, n=32; 4 hr, n=55, and 6 hr, n=61). […]

Sequences of proteins named here, by UniProt entry; tags and fusion partners are left off. Residues count along the entry.
UniProt Q08463, 69-641: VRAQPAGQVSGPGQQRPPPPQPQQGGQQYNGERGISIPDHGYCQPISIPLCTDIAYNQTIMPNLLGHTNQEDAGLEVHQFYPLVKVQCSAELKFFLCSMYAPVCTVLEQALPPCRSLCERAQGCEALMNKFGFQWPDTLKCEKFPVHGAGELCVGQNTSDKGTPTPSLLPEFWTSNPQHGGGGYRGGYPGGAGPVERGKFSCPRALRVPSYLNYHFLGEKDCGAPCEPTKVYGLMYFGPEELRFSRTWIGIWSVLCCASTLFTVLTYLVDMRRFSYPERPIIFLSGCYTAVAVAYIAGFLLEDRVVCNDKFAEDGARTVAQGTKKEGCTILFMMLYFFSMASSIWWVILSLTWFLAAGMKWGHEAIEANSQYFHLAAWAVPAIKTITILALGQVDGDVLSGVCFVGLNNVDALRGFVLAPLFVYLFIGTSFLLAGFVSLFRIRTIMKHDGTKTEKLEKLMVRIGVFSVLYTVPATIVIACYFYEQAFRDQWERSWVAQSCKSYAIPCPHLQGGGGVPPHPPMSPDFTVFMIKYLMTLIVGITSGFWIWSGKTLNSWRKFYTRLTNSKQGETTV

Thiethylperazine malate
Internalization Score (+ to +++, low to high): +
